This is a selection; strong and weak results do not stand in their true shares. Some results for these compounds are left out of this collection, so the calls shown say nothing about other tests. Inconclusive results are not listed. Active and inactive are the calls of the source. The calls were made as follows: active = clear falling dose curves in both reporters; inconclusive = both reporters move, but less clearly or upward; inactive = either reporter flat; the % is the NLuc reporter signal.
Assay: Cell-based coincidence reporter assay to measure PMP22 gene transcription in S16 Pmp22-F2sN cells - Primary screen
Conditions: S16 Pmp22-F2sN Schwann cells (luciferase reporters placed in the Pmp22 gene), FLuc/NLuc coincidence luminescence, 24 h; at 57.5 µM (top of the series)
From the text: Assay Provider: Jim Inglese Ph.D. National Center for Advancing Translational Science, National Institutes of Health, Rockville, MD CMT is a heterogeneous group of neurological disorders that affect approximately 1 in 2,500 people. In particular, the most common form of CMT, CMT1A is genetically linked to the duplication of the PMP22 gene which leads to Schwann cell overexpression, thus manifesting itself as a typical case of dose-sensitive diseases. To identify small molecule compounds that can mediate the expression of PMP22 we developed a phenotypic assay screening strategy by utilizing genome editing techniques to construct Schwann cell lines containing novel reporter technology to monitor the transcriptional or translational regulation of PMP22. For high sensitivity we use a bioluminescent reporter system embedded in the 3' UTR of the PMP22 gene (S16(c9) Pmp22-F2sN) to identify compounds that inhibit gene expression. […] We can further discriminate the effect of all transcriptionally active molecules on PMP22 translation or stability with an assay that incorporates a short NLuc peptide (HiBiT) at the C-terminus of expressed PMP22 (S16(f8) PMP22-HiBiT) allowing alpha complementation and luminescence detection of membrane-associated PMP22 protein. These assays were screened against the NCATS Sytravon Library Collection. Miniaturization of these assays to 1536-well plate format for quantitative high throughput screening (qHTS) yielded rich data sets immediately from the qHTS assay (S16(c9) Pmp22-F2sN), when compared with data from a cell viability assay (Cell TiterGlo) to identify compounds that decreased the output signals through cellular toxicity to streamline the selection process of actives for subsequent characterization using the HiBiT assay (S16(f8) PMP22-HiBiT).
Cell-based coincidence reporter assay to measure PMP22 gene transcription in S16 Pmp22-F2sN cells PROTOCOL TABLE (format as described by Inglese J, Shamu CE and Guy RK. 2007) SEQUENCE No. (e.g., 1, 2, 3, etc.); […] (e.g., Cells, Incubation, Reagent, etc.); VALUE and DESCRIPTION. 1. Cells. Add 500-1,000 cells in 4 uL in growth media (DMEM High Glucose, No Phenol Red media + 10% heat-inactivated FBS + 1% Pen/Strep supplemented media) per well into Greiner 1536-well white/solid bottom high base, TC-treated plates. 2. Compounds. Library compounds and controls added at 23nL per well, transferred by Pin Tool. 3. Incubation. Incubate plates at 37C, 5% CO2, 95% RH for 24 h. 4. Reagent. Add 3.5uL Nano-Glo Dual-Luciferase Reporter Assay System reagent 1: Lysis and FLuc reagent per well of Greiner 1536-well plates. 5. Incubation. Incubate plates at room temperature for 10 min., protect from light. 6. Detector. FLuc luminescence measured using CCD-based camera (Viewlux). 7. Reagent. Add 3.5uL Nano-Glo Dual-Luciferase Reporter Assay System reagent 2: Stop&Glo reagent per well of Greiner 1536-well plates. 8. Incubation. Incubate plates at room temperature for 10 min., protect from light. 9. Detector. NLuc luminescence measured using CCD-based camera (Viewlux). […] Luminescence Read #1 (FLuc): Clear filter; Exposure = 10 sec, Gain = High, Speed = Slow, Binning = 2X 9. Luminescence Read #2 (NLuc): Clear filter; Exposure = 1 sec, Gain = High, Speed = Slow, Binning = 2X REFERENCES: 1. […] Yasgar A, Shinn P, Jadhav A, Auld DS, Michael S, Zheng W, Austin CP, Inglese J and Simeonov A, Compound Management for Quantitative High-Throughput Screening. […]
% is scaled to controls: 0 for no effect and ±100 for the full control effect.

Structure (SMILES)	activity change, negative = inhibition
CC(C)COc1ccc(C(=O)NCC2(N(C)C)CCCCC2)cc1	inactive: -34.3%
CC(C)Oc1ccc(C(=O)NCC2(N(C)C)CCCCC2)cc1	inactive: -7.71%
Cc1cccc(C(=O)NCC2(N(C)C)CCCCC2)c1	inactive: -5.08%
CN(C)C1(CNC(=O)c2ccccc2[N+](=O)[O-])CCCCC1	inactive: -10.7%
CCOc1cccc(C(=O)NCC2(N(C)C)CCCCC2)c1	inactive: -29.7%
